Active and inactive are the calls of the source. The calls are words filed in the database; no cut-off is given here.

Consider four compounds from ChEMBL document CHEMBL4229563, “Identification of the First PPARα/γ Dual Agonist Able To Bind to Canonical and Alternative Sites of PPARγ and To Inhibit Its Cdk5-Mediated Phosphorylation” (J Med Chem, 2018).

This assay has as its target T1, Peroxisome proliferator-activated receptor alpha (Homo sapiens) (UniProt Q07869).
T1 sequence (whole entry): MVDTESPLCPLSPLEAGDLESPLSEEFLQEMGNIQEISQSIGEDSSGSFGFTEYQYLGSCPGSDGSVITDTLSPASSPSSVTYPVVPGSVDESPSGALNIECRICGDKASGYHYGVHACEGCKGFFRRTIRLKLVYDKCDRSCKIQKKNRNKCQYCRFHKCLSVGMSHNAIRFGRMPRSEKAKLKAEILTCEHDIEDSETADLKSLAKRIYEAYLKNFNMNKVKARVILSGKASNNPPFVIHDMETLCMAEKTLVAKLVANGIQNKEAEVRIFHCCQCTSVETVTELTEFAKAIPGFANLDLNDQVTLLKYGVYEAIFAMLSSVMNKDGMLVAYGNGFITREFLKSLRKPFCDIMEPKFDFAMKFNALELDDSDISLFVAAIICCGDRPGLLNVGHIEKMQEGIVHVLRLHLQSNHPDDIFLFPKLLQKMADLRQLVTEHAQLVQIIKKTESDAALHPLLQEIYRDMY
The assay can be described thus: Transactivation of GAL4-tagged human PPARalpha LBD expressed in human HepG2 cells after 20 hrs by luciferase reporter gene assay relative to Wy-14,643. The format is cell-based.
With `O=C(O)[C@H](Cc1ccc(-c2ccc(O[C@H](Cc3ccccc3)C(=O)O)cc2)cc1)Oc1ccc(-c2ccccc2)cc1`, the Emax was 13%.

Turning to `O=C(O)[C@H](Cc1ccccc1)Oc1ccc(-c2ccc(C[C@@H](Oc3ccc(-c4ccccc4)cc3)C(=O)O)cc2)cc1`, the Emax worked out at 4%.

`O=C(O)[C@@H](Cc1ccc(-c2ccc(O[C@H](Cc3ccccc3)C(=O)O)cc2)cc1)Oc1ccc(-c2ccccc2)cc1`: the Emax result was “inactive”.

Compound `O=C(O)[C@H](Cc1ccc(-c2ccc(O[C@@H](Cc3ccccc3)C(=O)O)cc2)cc1)Oc1ccc(-c2ccccc2)cc1` showed an Emax of 47%.
